# Cyclic peptide permeability, from CycPeptMPDB

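Conditions beyond the assay type are not listed; see the original paper. Other peptides of the study may be missing here. Entries at the database's floor value (log10 P of -10) are not listed.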

PAMPA measures passive passage through an artificial lipid membrane.
Permeability is given as log10 of P in cm/s; higher (less negative) is more permeable.

Listed for CC(C)C[C@@H]1C(=O)N2CCC[C@H]2C(=O)N[C@H](CC(C)C)C(=O)N[C@@H](Cc2ccccc2)C(=O)N[C@H](C)C(=O)N(C)[C@H](CC(C)C)C(=O)N1C: PAMPA -5.18 (log10 cm/s).
Listed for CCCN1CC(=O)N[C@H](CC(C)C)C(=O)N(Cc2ccccc2)CC(=O)N2CCC[C@H]2C(=O)N[C@@H](CC(C)C)C(=O)N[C@@H](Cc2ccccc2)C1=O: PAMPA -5.55 (log10 cm/s).
Listed for CC(C)C[C@@H]1C(=O)N[C@H](CC(C)C)C(=O)N2CCC[C@H]2C(=O)N(C)[C@@H](CC(C)C)C(=O)N[C@@H](Cc2ccccc2)C(=O)N2CCC[C@H]2C(=O)N[C@H](C)C(=O)N1C: PAMPA -5.50 (log10 cm/s).
Listed for CCCN1CC(=O)N(C)[C@@H](CC(C)C)C(=O)N[C@@H](CC(C)C)C(=O)N2CCC[C@@H]2C(=O)N(Cc2ccccc2)CC(=O)N[C@@H](Cc2ccccc2)C(=O)N2CCC[C@@H]2C1=O: PAMPA -5.41 (log10 cm/s).
Listed for CC(C)C[C@@H]1C(=O)N[C@@H](Cc2ccccc2)CC(=O)N2CCC[C@H]2C(=O)N(C)[C@H](CC(C)C)C(=O)N[C@@H](Cc2ccccc2)C(=O)N[C@@H](C)C(=O)N1C: PAMPA -6.28 (log10 cm/s).
Listed for CCCN1CC(=O)N[C@H](CC(C)C)C(=O)N[C@H](CC(C)C)C(=O)N2CCC[C@@H]2C(=O)N(C)[C@H](CC(C)C)C(=O)N[C@@H](Cc2ccccc2)C(=O)N2CCC[C@H]2C1=O: PAMPA -5.81 (log10 cm/s).
Listed for CCCN1CC(=O)N[C@H](CC(C)C)C(=O)N(Cc2ccccc2)CC(=O)N2CCC[C@H]2C(=O)N(Cc2ccccc2)CC(=O)N[C@@H](Cc2ccccc2)C(=O)N2CCC[C@H]2C1=O: PAMPA -5.81 (log10 cm/s).
Listed for CC(C)C[C@H]1NC(=O)[C@H](C)NC(=O)[C@H]2CCCN2C(=O)[C@H](Cc2ccccc2)NC(=O)CN(Cc2ccccc2)C(=O)[C@H]2CCCN2C(=O)CN(Cc2ccccc2)C1=O: PAMPA -5.79 (log10 cm/s).
Listed for CC(C)C[C@@H]1NC(=O)[C@H](C)NC(=O)[C@H](Cc2ccccc2)NC(=O)[C@@H](CC(C)C)NC(=O)[C@@H]2CCCN2C(=O)[C@H](CC(C)C)NC1=O: PAMPA -6.62 (log10 cm/s).
Listed for CC(C)C[C@@H]1NC(=O)[C@@H](CC(C)C)NC(=O)[C@H](C)NC(=O)[C@H]2CCCN2C(=O)[C@H](Cc2ccccc2)NC(=O)[C@@H](CC(C)C)NC(=O)[C@H]2CCCN2C1=O: PAMPA -6.37 (log10 cm/s).
Listed for CC(C)C[C@@H]1NC(=O)[C@H](CC(C)C)N(C)C(=O)[C@H](C)N(C)C(=O)[C@H](Cc2ccccc2)NC(=O)CN(Cc2ccccc2)C(=O)[C@H]2CCCN2C1=O: PAMPA -5.23 (log10 cm/s).
Listed for CCCN1CC(=O)N(C)[C@@H](CC(C)C)C(=O)N[C@H](CC(C)C)C(=O)N2CCC[C@H]2C(=O)N(Cc2ccccc2)CC(=O)N[C@@H](Cc2ccccc2)C(=O)N2CCC[C@H]2C1=O: PAMPA -5.30 (log10 cm/s).
Listed for CCCN1CC(=O)N(C)[C@H](CC(C)C)C(=O)N(C)[C@H](CC(C)C)C(=O)N2CCC[C@H]2C(=O)N[C@H](CC(C)C)C(=O)N[C@@H](Cc2ccccc2)C1=O: PAMPA -4.80 (log10 cm/s).
Listed for CC(C)C[C@@H]1NC(=O)[C@@H](C)N(C)C(=O)[C@H]2CCCN2C(=O)[C@H](Cc2ccccc2)NC(=O)[C@@H](CC(C)C)N(C)C(=O)[C@@H]2CCCN2C(=O)[C@H](CC(C)C)NC1=O: PAMPA -5.29 (log10 cm/s).
Listed for CC(C)C[C@@H]1C(=O)N[C@@H](Cc2ccccc2)C(=O)N2CCC[C@H]2C(=O)N(C)[C@@H](C)C(=O)N(C)[C@H](CC(C)C)C(=O)N[C@H](CC(C)C)C(=O)N2CCC[C@@H]2C(=O)N1C: PAMPA -5.10 (log10 cm/s).
Listed for CC(C)C[C@@H]1NC(=O)[C@@H](C)NC(=O)[C@H]2CCCN2C(=O)[C@H](Cc2ccccc2)NC(=O)[C@@H](CC(C)C)N(C)C(=O)[C@H]2CCCN2C(=O)CN(Cc2ccccc2)C1=O: PAMPA -5.78 (log10 cm/s).
Listed for CCCN1CC(=O)N[C@H](CC(C)C)C(=O)N(C)[C@@H](CC(C)C)C(=O)N2CCC[C@@H]2C(=O)N[C@@H](CC(C)C)C(=O)N[C@@H](Cc2ccccc2)C(=O)N2CCC[C@H]2C1=O: PAMPA -5.99 (log10 cm/s).

The 2 lowest values of PAMPA among the entries above:

CC(C)C[C@@H]1NC(=O)[C@H](C)NC(=O)[C@H](Cc2ccccc2)NC(=O)[C@@H](CC(C)C)NC(=O)[C@@H]2CCCN2C(=O)[C@H](CC(C)C)NC1=O has PAMPA -6.62 (log10 cm/s).
CC(C)C[C@@H]1NC(=O)[C@@H](CC(C)C)NC(=O)[C@H](C)NC(=O)[C@H]2CCCN2C(=O)[C@H](Cc2ccccc2)NC(=O)[C@@H](CC(C)C)NC(=O)[C@H]2CCCN2C1=O has PAMPA -6.37 (log10 cm/s).

Source: CycPeptMPDB (Li et al. 2023), which took these values from Townsend et al. 2020, doi:10.26434/chemrxiv.13335941.v1.